Data from patent US9579346B2.

Legend:
normal PBMCs = assay: Two chamber migration study of PBMCs towards chemoattractant; conditions: 300 micromolar, 4 hours, 10% FBS as chemoattractant
EAE mice = assay: Experimental Autoimmune Encephalomyelitis (EAE) mouse model of multiple sclerosis; conditions: chlorite injections, planned experiment
[1] = system: normal peripheral blood mononuclear cells (PBMC); assay: CD16 expression on CD14+ cells of normal PBMCs, flow cytometry; conditions: five samples of normal PBMCs, various concentrations, three days
CD14+ cells = assay: CD16 expression in CD14+ cells and monocyte toxicity, various compounds (FIG. 8); conditions: 300 micromolar concentration (FIG. 8)

sodium chlorite
migration response of PBMCs to chemoattractants (chemotaxis index) (normal PBMCs): blocked the migration response
treating EAE in mice (EAE mice): effective
median CD16 expression levels on CD14+ cells (CD14CD16 on PBMCs) [1]: decreased
CD16 expression in CD14+ cells (CD14+ cells): decreased
